# Test: Diluents lowering the melting point of pelargonic acid: visual appearance (crystal/clear) of pelargonic acid/diluent blends at low temperature
# [1] = pelargonic acid 30 wt % + diluent 70 wt %
# [2] = pelargonic acid 50 wt % + diluent 50 wt %
# [3] = pelargonic acid 65 wt % + diluent 35 wt %
# [4] = pelargonic acid 70 wt % + diluent 30 wt %
# [5] = pelargonic acid 75 wt % + diluent 25 wt %
# [6] = pelargonic acid 80 wt % + diluent 20 wt %, printed in the 0° C. column
compound,measurement,setting,value
CCCCOP(=O)(OCCCC)OCCCC,diluent amount required to lower the melting point of pelargonic acid to 0° C. (or lower),,35%
same,appearance at 0° C.,[1],Clear
same,appearance at −20° C.,[1],Clear
same,appearance at 0° C.,[2],Clear
same,appearance at −20° C.,[2],Crystal
same,appearance at 0° C.,[3],Clear
same,appearance at −20° C.,[3],Crystal
same,appearance at 0° C.,[4],Crystal
same,appearance at −20° C.,[4],Crystal
same,appearance at 0° C.,[5],Crystal
same,appearance at −20° C.,[5],Crystal
same,appearance at −20° C.,pelargonic acid 80 wt % + diluent 20 wt %,Crystal
same,appearance at 5° C.,[6],Crystal at 5 °C
same,appearance at 10° C.,[6],clear at 10 °C

# — patent US20240206463A1, “AGROCHEMICAL COMPOSITION” (NOURYON CHEMICALS INTERNATIONAL B.V., priority 2021, published 2024)
